# Laboratory results published in PMC6295333 (Biochemistry, 2018).
# Tested on: CN1CCC[C@H]1c1cccnc1
# Test: purified protein
# Conditions: FAD active site; hydrogen bond to T381 removed; pH 7.4; 22.0 °C
substance,measurement,value
Nicotine oxidoreductase (NicA2) (Pseudomonas putida S16; T381V),Km,0.317 µM
same,kcat,0.011 s⁻¹
same,kcat/Km,34700 M⁻¹ s⁻¹
